# Assay results published in ChEMBL document CHEMBL5518194, “An 19F NMR fragment-based approach for the discovery and development of BRCA2-RAD51 inhibitors to pursuit synthetic lethality in combination with PARP inhibition in pancreatic cancer” (Eur J Med Chem, 2024).
# Calls of active or inactive are those of the source. The rule behind the calls is not given here.
# Assays:
# [1] = system: BXPC-3; assay: Inhibition of homologous recombination in human BXPC-3 cells at 350 uM incubated for 5 hrs by real-time PCR analysis relative to control; format: functional
# [2] = system: BXPC-3; assay: Inhibition of homologous recombination in human BXPC-3 cells at 20 uM incubated for 5 hrs by real-time PCR analysis relative to control; format: functional
# [3] = system: Pancreatic cancer organoid; assay: Induction of DNA damage in patient derived PT291 pancreatic ductal adenocarcinoma organoid assessed as increase in gamma-H2AX fluorescence intensity at 2 uM incubated for 24 hrs by immunofluorescence analysis; format: functional, tissue-based; conditions: Homo sapiens
SMILES,inhibition [1],inhibition [2],Activity [3]
Cc1nc2[nH]c(-c3ccc([N+](=O)[O-])cc3)cc(=O)n2n1,inactive,inactive,
Cc1ccc(-c2cc(=O)n3nc(C(F)(F)F)cc3[nH]2)cc1,,inactive,
CCc1cc2[nH]c(-c3ccc(C)cc3)cc(=O)n2n1,,inactive,
Cn1ncnc1[C@H]1c2n[nH]c(=O)c3cc(F)cc(c23)N[C@@H]1c1ccc(F)cc1,,,inactive
Cc1cc(=O)n2nc(C(F)(F)F)cc2[nH]1,inactive,inactive,
